Assay [1] concerns MDR human mammary adenocarcinoma MCF-7/Adr xenograft. The protocol: (§1) DMSO was used as a vehicle for epothilones. Each mouse received ≦40 μL DMSO in all experiments.
(§2) Athymic nude mice (nu/nu) were used for MX-1 and MCF-7/Adr human mammary carcinoma xenografts. Mice were obtained from Taconic Laboratory Animals and Service (Germantown, N.Y.: outbred, Swiss background).

In assay [2] the test system is human mammary carcinoma MX-1 xenograft. The note with it: i.p., comparison with Adriamycin. The protocol: as §1, §2
The next assay relates to DC-3F/ADX. It counts as cell-based, hamster. How it is done:
The DC-3F hamster lung fibroblast cell line and its actinomycin D-selected sublines (DC-3F/ADII and DC-3F/ADX) were obtained from the Memorial Sloan-Kettering Cancer Center (MSKCC).
(§3) The drug-resistant cell lines were continuously cultured in the presence of the selecting agent, AD, DX, VBL or VM to maintain the drug resistant phenotypes. […] All cells were cultured in RPMI 1640-10% FBS at 37° C. 5% CO2 (see below).
The cytotoxicity of the drug toward the monolayer cell cultures (such as DC-3F, MCF-7, SK-N-As and sublines) was determined in 96-well microtiter plates by the SRB method as described by Skehan and co-workers (Skehan, P., et al., J. Natl. Cancer Inst. 1990, 82, 1107-1112) for measuring the cellular protein content. […] Unbound dye was removed by acetic acid washes, and the protein-bound dye was extracted with an unbuffered Tris base (tris(hydroxy-methyl)aminomethane) for determination of absorbance at 570 nm in a 96-well microtiter plate reader. […] Data were analyzed with the median-effect plot (Chou, T.-C. & Talalay, P. T. (1984) Adv. Enzyme Regul. 22, 27-55) using a previously described computer program (Chou, J., & Chou T.-C. 1987, Dose-effect analysis with microcomputers: Quantitation of ED50, synergism, antagonism, low-dose risk, reception-ligand binding and enzyme kinetics, IBM-PC software and manual, Biosoft, Cambridge, U.K.). […]

Assay [3] has as its system PC-3 Human Prostate Carcinoma. The assay can be described thus: PC-3 xenograft. Format: in vivo, nude mice. The following applies: i.v./i.p. (order wraps over rows r11-r12).
For a further assay, the system named is SK-N-FI. It counts as cell-based, human. The protocol: as §3
The cytotoxicity of the drug toward the monolayer cell cultures (such as DC-3F, MCF-7, SK-N-As and sublines) was determined in 96-well microtiter plates by the SRB method as described by Skehan and co-workers (Skehan, P., et al., J. Natl. Cancer Inst. 1990, 82, 1107-1112) for measuring the cellular protein content. Cultures were fixed with trichloroacetic acid and then stained for 30 min with 0.4% suforhodamine B dissolved in 1% acetic acid. Unbound dye was removed by acetic acid washes, and the protein-bound dye was extracted with an unbuffered Tris base (tris(hydroxy-methyl)aminomethane) for determination of absorbance at 570 nm in a 96-well microtiter plate reader. The experiments were carried out in duplicate. […] Data were analyzed with the median-effect plot (Chou, T.-C. & Talalay, P. T. (1984) Adv. Enzyme Regul. 22, 27-55) using a previously described computer program (Chou, J., & Chou T.-C. 1987, Dose-effect analysis with microcomputers: Quantitation of ED50, synergism, antagonism, low-dose risk, reception-ligand binding and enzyme kinetics, IBM-PC software and manual, Biosoft, Cambridge, U.K.).

Another assay concerns P388/Adr. It counts as cell-based, murine. How it is done:
as §3
(§4) The cells were cultured at an initial density of 5×10^4 cells/mL. They were maintained in a 5% CO2-humidified atmosphere at 37° C. in RPMI-1640 medium (GIBCO-BRL, Gaithersburg, Md.) containing penicillin (100 U/mL), streptomycin ([…]) (GIBCO-BRL) and 10% heat inactivate fetal bovine serum. Culture for cell suspension (such as for CCRF-CEM, P388 and sublines), were performed by the XTT-microculture tetrazonium method (Scudiero, D. A. et al., Cancer Res. 1988, 48, 4827-4833) in duplicate in 96-well microtiter plates.
(§5) 2′,3′-Bis(methoxy-4-nitro-5-sufophenyl)-5-[(phenylamino)carbonyl]2H-tetrazolium hyudroxide (XTT) was prepared at 1 mg/mL in prewarmed (37° C.) medium without serum. Phenazine methosulfate (PMS) and fresh XTT were mixed together to obtain 0.025 mM PMS-XTT solution (25 μL of the stock 5 mM PMS was added per 5 mL of 1 mg/mL XTT). Following a 72 h incubation, 50 μL of the assay aliquots were added to each well of the cell culture. After incubation at 37° C. for 4 h, absorbance at 450 nm and 630 nm was measured with a microplate reader (EL340, Bio-Tek Instruments, Inc., Winooski, Vt.).

The next assay deals with CCRF-CEM/Taxol®. It counts as cell-based, human. The following applies: Table 1A; CCRF-CEM/Taxol vs CCRF-CEM. How it is done:
as §3, §4, §5

The next assay concerns CCRF-CEM/VM1. It counts as cell-based, human. The note with it: Table 1A; CCRF-CEM/VM1 vs CCRF-CEM. The protocol: as §3, §4, §5
A further assay concerns CCRF-CEM/VBL100. Format: cell-based, human. The note with it: Table 1A; CCRF-CEM/VBL100 vs CCRF-CEM. How it is done: as §3, §4, §5
The test system of the next assay is MCF-7/Adr. Format: cell-based, human. How it is done:
Cultures were fixed with trichloroacetic acid and then stained for 30 min with 0.4% suforhodamine B dissolved in 1% acetic acid. Unbound dye was removed by acetic acid washes, and the protein-bound dye was extracted with an unbuffered Tris base (tris(hydroxy-methyl)aminomethane) for determination of absorbance at 570 nm in a 96-well microtiter plate reader. The experiments were carried out in duplicate. Each run entailed six to seven concentrations of the tested drugs.

Structures can show the parent of a compound that is named as a salt. Where two headings read alike, the source gives them in different places.

For `COc1cccc2c1C(=O)c1c(O)c3c(c(O)c1C2=O)C[C@@](O)(C(=O)CO)C[C@@H]3O[C@H]1C[C@H](N)[C@H](O)[C@H](C)O1` [Adriamycin, doxorubicin or adriamycin HCl], the “Therapeutic effect Rank Order” value is “Adriamycin > Taxol ®” in assay [1] (i.p. (order wraps over rows r13-r14)); “Taxol ® > VBL, Adriamycin” in assay [1] (i.v. infusion (order wraps over rows r16-r17)); “dEpoB > Adriamycin > Taxol ®” in assay [2]; “Adriamycin” in assay [3]. In the assay on DC-3F/ADX (DC-3F/ADX cells), the “fold resistance vs parent DC-3F” value was 124 fold. The “folds of resistance (IC50 ratio vs parent cell line)” value in the assay on DC-3F/ADX (Table 1C, DC-3F/ADX vs DC-3F) is “(124x)”; in the assay on SK-N-FI (Table 1C, SK-N-FI vs SK-N-As) it was “(18.4x)”; with P388/Adr (Table 1C, P388/Adr vs P388/O) it was “(482x)”; in the assay with MCF-7/Adr (Table 1C, MCF-7/Adr vs MCF-7), “(3.8x)”. Besides, the “fold resistance vs parent SK-N-As” value in the assay with SK-N-FI (SK-N-F1 cells) was found to be 18 fold. For the same molecule, in the assay with P388/Adr (P388/Adr cells), the “fold resistance vs parent P388” value came to 482 fold. Besides, the “(C)/(A) IC50 ratio” value in the assay with CCRF-CEM/Taxol® is 2.3. Moreover, the “(D)/(A) IC50 ratio” value in the assay on CCRF-CEM/VM1 was determined as 3.6. The “(B)/(A) IC50 ratio” value in the assay with CCRF-CEM/VBL100 is given as 48. In addition, the “fold resistance vs parent MCF-7” value with MCF-7/Adr (MCF-7/Adr cells) was determined as 3.8 fold.
